Data published in patent US20240139185A1, “COMPOUNDS THAT PARTICIPATE IN COOPERATIVE BINDING AND USES THEREOF” (Revolution Medicines, Inc., priority 2018, published 2024).

Key:
cyclophilin A (CYPA) = cyclophilin A (CYPA) (Homo sapiens, UniProt P62937); experiment: CYPA-compound binary complex formation by SPR; details: read-out: CYPA Binding Affinity
Procedure, shortened: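 Steady-state fit of SPR responses gave binding affinity. Analyte series: 50 μM downward, 2-fold, 10 points, running buffer HBS-P+ (0.05% Tween20, pH7.4, 2% DMSO), 60 s on/60 s off. Surface: biotinylated CypA-Avi captured at 4 μg/ml against a reference cell, regenerated with NaOH/guanidine.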

pERK in H358 cells = experiment: pERK inhibition in H358 cells; details: read-out: Cellular pERK inhibition, 4 hours treatment
Procedure, shortened: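 Human lung cancer H358 cells in RPMI/10% FBS were exposed to compound or DMSO for 4 h. Fixed and permeabilized cells were stained overnight at 4 C with anti-phospho-ERK1/2 (Thr202/Tyr204). Near-infrared imaging read the pERK signal at 800 nm, with DRAQ5 at 700 nm.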

[1] = biological target: BRAF-GTP-KRAS-G12C complex (Homo sapiens, UniProt P01116+P62937, G12C); experiment: KRAS-BRAF complex disruption through competition with CYPA-compound by TR-FRET; details: read-out: BRAF-GTP-KRAS-G12C Disruption; biochemical BRAF-KRAS G12C-GTP disruption assay EC50, with CYPA
Procedure, shortened: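 Compound-driven loss of KRAS–BRAF RBD TR-FRET signal, Eu-anti-His/APC-anti-GST pair (10/50 nM, 1.5 h), following a 3 h room-temperature preincubation of 50 nM His6-KRAS G12C-GTP and 500 nM CypA in 25 mM Hepes pH 7.3 buffer. EC50 by 4-parameter fit. Variants used wild-type KRAS in place of G12C or no CypA.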

Row | Compound | Kd (cyclophilin A (CYPA)) | IC50 (pERK in H358 cells) | EC50 [1]
1 | C=CC(=O)N1CC[C@H](C(=O)N(C)[C@H](C(=O)N[C@H]2Cc3cc(O)cc(c3)-c3ccc4c(c3)c(cn4C(C)(C)C#N)CC(C)(C)COC(=O)[C@@H]3CCCN(N3)C2=O)C(C)C)C1 | > 15 µM | 1 to 10 µM | 0.5 to 5 µM
2 | CCC(C)C(C(=O)NC1Cc2cc(O)cc(c2)-c2ccc3c(C(C)(C)C#N)cn(c3c2)CC(C)(C)COC(=O)C2CCCN(N2)C1=O)N(C)C(=O)C1CN(C(=O)CCl)C1 (stereo not drawn) | 5 to 15 µM | 1 to 10 µM | < 0.5 µM
3 | COCC(Cl)C(=O)N1CC(C(=O)N(C)[C@H](C(=O)N[C@H]2Cc3cc(O)cc(c3)-c3ccc4c(C(C)(C)C#N)cn(c4c3)CC(C)(C)COC(=O)[C@@H]3CCCN(N3)C2=O)C(C)C)C1 (stereo partly drawn) | 5 to 15 µM | 1 to 10 µM | 0.5 to 5 µM
4 | C=CC(=O)N1CCC[C@@H](C(=O)N(C)[C@H](C(=O)N[C@H]2Cc3cc(O)cc(c3)-c3ccc4c(C(C)(C)C#N)cn(c4c3)CC(C)(C)COC(=O)[C@@H]3CCCN(N3)C2=O)C(C)C)C1 | 5 to 15 µM | > 10 µM | > 5 µM
5 | C=CC(=O)N1CCC(CC(=O)N(C)[C@H](C(=O)N[C@H]2Cc3cc(O)cc(c3)-c3ccc4c(c3)c(c(C#N)n4CC)CC(C)(C)COC(=O)[C@@H]3CCCN(N3)C2=O)C(C)C)CC1 | > 15 µM | > 10 µM | 0.5 to 5 µM
6 | CC(C)[C@@H](C(=O)N[C@H]1Cc2cc(O)cc(c2)-c2ccc3c(-c4ccccc4Oc4ccccc4)cn(c3c2)CC(C)(C)COC(=O)[C@@H]2CCCN(N2)C1=O)N(C)C(=O)C1CN(C(=O)CCl)C1 | > 15 µM | 1 to 10 µM | < 0.5 µM
7 | C=CC(=O)N1CC[C@H](C(=O)N(C)[C@H](C(=O)N[C@H]2Cc3cc(O)cc(c3)-c3ccc4c(C(C)(C#N)CC5CCOCC5)cn(c4c3)CC(C)(C)COC(=O)[C@@H]3CCCN(N3)C2=O)C(C)C)C1 (single isomer, unassigned) [368] | > 15 µM | > 10 µM | > 5 µM
8 | CC(C)[C@@H](C(=O)N[C@H]1Cc2cc(O)cc(c2)-c2ccc3c(C4CC4)nn(c3c2)CC(C)(C)COC(=O)[C@@H]2CCCN(N2)C1=O)N(C)C(=O)C1CN(C(=O)CCl)C1 | > 15 µM | < 1 µM | < 0.5 µM
9 | CC(C)[C@@H](C(=O)N[C@H]1Cc2cc(O)cc(c2)-c2ccc3cc(-c4ccccc4)n(c3c2)C[C@H](C)COC(=O)[C@@H]2CCCN(N2)C1=O)N(C)C(=O)C1CN(C(=O)CCl)C1 | > 15 µM | > 10 µM | < 0.5 µM
10 | CC1COC(=O)[C@@H]2CCCN(N2)C(=O)[C@@H](NC(=O)[C@H](C(C)C)N(C)C(=O)C2CN(C(=O)CCl)C2)Cc2cc(O)cc(c2)-c2ccc3c(-c4ccc(C#N)cc4)cn(c3c2)C1 (stereo partly drawn) | 5 to 15 µM | 1 to 10 µM | < 0.5 µM
11 | C=CC(=O)N1CCCC1C(=O)N(C)C(C(=O)NC1Cc2cc(O)cc(c2)-c2ccc3cc(C)n(c3c2)CC(C)(C)COC(=O)C2CCCN(N2)C1=O)C(C)C (stereo not drawn) | > 15 µM | > 10 µM | > 5 µM
12 | CC(C)[C@@H](C(=O)N[C@H]1Cc2cc(O)cc(c2)-c2ccc3c(C(C)(C)CC#N)cn(c3c2)CC(C)(C)COC(=O)[C@@H]2CCCN(N2)C1=O)N(C)C(=O)C1CN(C(=O)[C@@H](C)Cl)C1 | 5 to 15 µM | 1 to 10 µM | 0.5 to 5 µM
13 | CC(C)[C@@H](C(=O)N[C@H]1Cc2cc(O)cc(c2)-c2ccc3c4ccccc4n(c3c2)C[C@H](C)COC(=O)[C@@H]2CCCN(N2)C1=O)N(C)C(=O)C1CN(C(=O)CCl)C1 | > 15 µM | 1 to 10 µM | < 0.5 µM
14 | CC(C)[C@@H](C(=O)N[C@H]1Cc2cc(O)cc(c2)-c2ccc3c(-c4c(F)cccc4C#N)cn(c3c2)CC(C)(C)COC(=O)[C@@H]2CCCN(N2)C1=O)N(C)C(=O)C1CN(C(=O)CCl)C1 | 5 to 15 µM | < 1 µM | < 0.5 µM
15 | CC(C)[C@@H](C(=O)N[C@H]1Cc2cc(O)cc(c2)-c2ccc3c(-c4ccccc4)cn(c3c2)C[C@H](C)COC(=O)[C@@H]2CCCN(N2)C1=O)N(C)C(=O)C1CN(C(=O)CCl)C1 | > 15 µM | 1 to 10 µM | < 0.5 µM
16 | C=CC(=O)N1CC[C@H](C(=O)N(C)[C@H](C(=O)N[C@H]2Cc3cc(O)cc(c3)-c3ccc4c(c3)N(CC(C)(C)COC(=O)[C@@H]3CCCN(N3)C2=O)CC42Cc3ccncc3C2)C(C)C)C1 (stereo partly drawn) | 5 to 15 µM | 1 to 10 µM | 0.5 to 5 µM
17 | C=CC(=O)N1CC(C(=O)N(C)[C@H](C(=O)N[C@H]2Cc3cc(O)cc(c3)-c3ccc4c(c3)n(c(=O)n4C3CC3)C[C@H](C)COC(=O)[C@@H]3CCCN(N3)C2=O)C(C)C)C1 | 5 to 15 µM | > 10 µM | 0.5 to 5 µM
18 | C[C@@H](Cl)C(=O)N1CC(C(=O)N(C)[C@H](C(=O)N[C@H]2Cc3cc(O)cc(c3)-c3ccc4c(C(C)(C)C#N)cn(c4c3)CC(C)(C)COC(=O)[C@@H]3CCCN(N3)C2=O)C2CCCC2)C1 | < 5 µM | 1 to 10 µM | 0.5 to 5 µM

Second part, the compound after the results:

Row | Kd (cyclophilin A (CYPA)) | IC50 (pERK in H358 cells) | EC50 [1] | Compound
19 | < 5 µM | > 10 µM | 0.5 to 5 µM | C=CC(=O)N1CC2(CCN([C@H](C(=O)N[C@H]3Cc4cc(O)cc(c4)-c4ccc5c(c4)c(cn5CC#N)CC(C)COC(=O)[C@@H]4CCCN(N4)C3=O)C(C)C)C2=O)C1 (stereo partly drawn)
20 | < 5 µM | > 10 µM | > 5 µM | C=CC(=O)N(C)[C@@H]1CCN([C@H](C(=O)N[C@H]2Cc3cc(O)cc(c3)-c3ccc4c(C(C)(C)C#N)cn(c4c3)C[C@H](C)COC(=O)[C@@H]3CCCN(N3)C2=O)C(C)C)C1=O
21 | < 5 µM | > 10 µM | > 5 µM | CC(C)[C@@H](C(=O)N[C@H]1Cc2cc(O)cc(c2)-c2ccc3c(c2)N(C[C@H](C)COC(=O)[C@@H]2CCCN(N2)C1=O)CC3(C)CC#N)N(C)C(=O)C1CN(C(=O)[C@@H](C)Cl)C1 (stereo partly drawn)
22 | < 5 µM | > 10 µM | > 5 µM | CC1COC(=O)[C@@H]2CCCN(N2)C(=O)[C@@H](NC(=O)[C@H](C(C)C)N(C)C(=O)C2CN(C(=O)[C@@H](C)Cl)C2)Cc2cc(O)cc(c2)-c2ccc3c(c2)c(cn3CC2CCOCC2)C1 (stereo partly drawn)
23 | < 5 µM | > 10 µM | 0.5 to 5 µM | CC#CC(=O)N1CCC2(CCN([C@H](C(=O)N[C@H]3Cc4cc(O)cc(c4)-c4ccc5c(C(C)(C)C#N)cn(c5c4)CC(C)(C)COC(=O)[C@@H]4CCCN(N4)C3=O)C(C)C)C2=O)C1 (stereo partly drawn)
24 | < 5 µM | 1 to 10 µM | < 0.5 µM | CC(C)[C@@H](C(=O)N[C@H]1Cc2cc(O)cc(c2)-c2ccc3c(Cc4ccncc4)cn(c3c2)C[C@H](C)COC(=O)[C@@H]2CCCN(N2)C1=O)N(C)C(=O)C1CN(C(=O)CCl)C1
25 | < 5 µM | > 10 µM | 0.5 to 5 µM | CC(C)[C@@H](C(=O)N[C@H]1Cc2cc(O)cc(c2)-c2ccc3c(-c4ccccc4[N+](=O)[O-])cn(c3c2)CC(C)(C)COC(=O)[C@@H]2CCCN(N2)C1=O)N(C)C(=O)C1CN(C(=O)[C@@H](C)Cl)C1
26 | < 5 µM | < 1 µM | < 0.5 µM | CC(C)[C@@H](C(=O)N[C@H]1Cc2cc(O)cc(c2)-c2ccc3c(C(C)(C)C#N)cn(c3c2)CC(C)(C)COC(=O)[C@@H]2CCCN(N2)C1=O)N1CCCC2(CCN(C(=O)CCl)C2)C1=O (single isomer, unassigned)
27 | < 5 µM | > 10 µM | > 5 µM | CC#CC(=O)N1CC[C@H]1C(=O)N(C)[C@H](C(=O)N[C@H]1Cc2cc(O)cc(c2)-c2ccc3nc(C)n(c3c2)CC(C)(C)COC(=O)[C@@H]2CCCN(N2)C1=O)C(C)C
